Test results from publication PMC4009755, “High-Throughput Screen of Natural Product Libraries for Hsp90 Inhibitors” (Biology, 2014).

Each molecule was assayed against Hsp90 chaperone machinery present in rabbit reticulocyte lysate (assay: Hsp90-dependent refolding of thermally denatured luciferase in rabbit reticulocyte lysate (high-throughput screen and titration)). Settings: estimate; titration from 25 µg/mL in three-fold dilutions, repeated twice; rabbit reticulocyte lysate.
Format: biochemical
Description: Rabbit reticulocyte lysate, prepared by lysing one volume of packed reticulocytes in two volumes of deionized water, followed by centrifugation for twenty minutes at 15,000 × g, was purchased from Green Hectares (Oregon, WI, USA).
Recombinant luciferase from Promega was diluted to 0.5 mg/mL in buffer consisting of 25 mM Tricine–HCl (pH 7.8), 8 mM MgSO4, 0.1 mM EDTA, and 10 mg/mL acetylated BSA. Next, the solution was adjusted to include 10% glycerol and 1% Triton X-100. Finally, the luciferase solution was heated to ~41°. Once the activity of the luciferase reached ~1% of its initial value, the mixture was placed on ice, or flash frozen in liquid nitrogen and placed at −80° for storage.
To prepare the denatured luciferase for use in re-folding assays, 125 µL of the 0.5 mg/mL mixture was added into a 10 mL mixture containing 80 mM Tris HCl, pH 7.7, 8 mM Mg(OAc)2, 300 mM KCl, 12 mM ATP, and 20 mM creatine phosphate, and 0.8 mg/mL creatine phosphokinase.
The assay buffer, which contains the luciferase substrate luciferin, consisted of 75 mM Tricine-HCl, pH 7.8, 24 mM MgSO4, 300 µM EDTA, 2 mM DTT, 313 µM D-luciferin, 640 µM coenzyme A, 660 µM ATP, 150 mM KCl, 10% (v/v) Triton X-100, 20% (v/v) glycerol, and 3.5% DMSO.
The libraries were screened for compounds that inhibited the refolding of thermally denatured luciferase using a high-throughput assay carried out with a slight modification of the method previously described. Briefly, compounds were reconstituted in 100% DMSO. Stocks of compounds purchased from Microsource, TimTec, Biofocus and BioMol were reconstituted to a concentration of 1 mg/mL. The stocks were diluted 40-fold into nano-pure water with the compounds being used at a final concentration of 12.5 µg/mL for the assay. Analyticon compounds (0.2 µmol) were reconstituted to a concentration of 4 mM, and were used at a final concentration of 40 µM in the assay. Assays were performed in 96-well microplates. To each well was added 30 µL of the water/DMSO compound solution, 15 µL of the reticulocyte lysate preparation, and 15 µL of the luciferase reagent. The plates were agitated and then allowed to incubate at 25 °C for one to three hours. After the incubation, 60 µL of assay buffer containing luciferin was added to each well. The plates were then read in a Molecular Devices LMaxII^384 microplate reader, and luminescence was measured in relative light units, with an integration time of 10 s. Compounds that inhibited luciferase refolding by approximately fifty percent or greater were then titrated into a refolding reaction containing native luciferase, to eliminate false positive hits that were direct inhibitors of luciferase as previously described. Compounds were classified as a potential Hsp90 inhibitor if they inhibited luciferase refolding by 60% or greater and there was no inhibition of the activity of native luciferase at the compound’s IC50 (concentration of the compound that inhibits luciferase refolding by 50%).
The titrations were repeated twice. For a more accurate determination of the IC50s for the compounds studied in Section 3.2.1 of this manuscript, a two-fold […] series of the compounds were used in triplicate, with the experiment being repeated three times.

Molecule	IC50
COc1cc2oc(-c3ccccc3)cc(=O)c2cc1O [Compound 34, 6-Hydroxy-7-methoxyflavone]	~45 µM
O=c1cc(-c2ccc(O)c(O)c2)oc2cc(O)cc(O)c12 [Compound 31, Luteolin]	> 100 µM
C/C=C/CCC(=O)c1cc(C)c(O)c(C)c1O [Compound 13, 2'3'-dihydrosorbicillin]	> 100 µM
COc1cc2c(cc1OC)-c1c(OC)c(OC)c(C=O)c3c1[C@H](C2)N(C)CC3 [Compound 72, 3-Formyl-glaucine]	8 to 20 µM
COc1cc2c(cc1OC)C(Cc1ccc(OC)c(OC)c1Oc1cc3c(cc1OC)-c1c(OC)c(OC)cc4c1[C@H](C3)N(C)CC4)N(C)CC2 (stereo partly drawn) [Compound 69]	> 30 µM
CC1(C)CCC2=C(O1)c1ccccc1C(=O)C2=O [Compound 79, β-Lapachone]	~20 µM
Antibiotic A83586C [Compound 75]	~10 µM
COc1cc2c(cc1OC)-c1c(O)c(OC)cc3c1[C@H](C2)N(C)CC3 [Compound 62, Thaliporphine]	~9 µM
C=C1C(=O)O[C@H]2C1[C@H](OC(=O)/C(=C/CO)COC(=O)/C(C)=C\CO)CC(=C)[C@@H]1CC(=O)[C@@H](C)[C@@H]12 (stereo partly drawn) [Compound 1]	~60 µM
C=C1C(=O)O[C@@H]2/C=C(/C)C(=O)/C=C/[C@](C)(O)C[C@@H](OC(=O)C(C)C)[C@@H]12 [Compound 5, Tagitinin C]	~10 µM
O=c1c(O)cc([C@H]2Oc3cc(O)cc(O)c3C[C@H]2O)cc2c([C@H]3Oc4cc(O)cc(O)c4C[C@H]3O)cc(O)c(O)c12 [Compound 15, Theaflavin]	~25 µM
C=C1C(=O)O[C@H]2[C@H]1CC/C(C)=C/CC[C@@]1(C)O[C@@H]21 [Compound 6, Parthenolide]	> 100 µM
O=c1cc(-c2ccccc2O)oc2c(O)c(O)ccc12 [Compound 27, 7,8-dihydroxy-2-(2-hydroxyphenyl)chromen-4-one]	~10 µM
COc1ccc2c(c1OC)CN(C)c1c-2ccc2cc3c(cc12)OCO3 [Compound 73]	~40 µM
CO[C@H]1/C=C/C(C)(C)/C=C/C(=O)O[C@H](C)[C@@H](C)CC/C=C/1C [Compound 8]	~10 µM
CC(C)=CCC[C@]1(C)C=Cc2c(O)c3c(c(CC=C(C)C)c2O1)O[C@]12C(=C[C@@H]4C[C@H]1C(C)(C)O[C@@]2(C/C=C(/C)C(=O)O)C4=O)C3=O [Compound 35, Gambogic acid]	~2 µM
Cc1c(C)c2c(c(C)c1OC(=O)CCC(=O)O)CC[C@@](C)(CCC[C@H](C)CCC[C@H](C)CCCC(C)C)O2 [Compound 19, (+)-α-Tocopherol acid succinate]	~50 µM
CC(C)=CCc1c(O)ccc(C(=O)/C=C/c2ccc(O)cc2)c1O [Compound 43, Corylifolinin]	~50 µM
CC(C)=CCCC1(C)C=Cc2c(O)cc(O)c(C(=O)c3ccccc3)c2O1 (stereo not drawn) [Compound 17]	~50 µM
O=C(OC1O[C@@H]2COC(=O)c3cc(O)c(O)c(O)c3-c3c(cc(O)c(O)c3O)C(=O)O[C@H]2[C@H](OC(=O)c2cc(O)c(O)c(O)c2)[C@H]1OC(=O)c1cc(O)c(O)c(O)c1)c1cc(O)c(O)c(O)c1 (stereo partly drawn) [Compound 14, Tellimagrandin II]	~70 µM
C/C=C/C=C/c1cc2cc3c(c(O)c2c(=O)[nH]1)[C@@]1(CC3)C(=O)c2c(O)c3c(c(O)c2C1=O)C(=O)C(OC)=CC3=O [Compound 58, Fredericamycin]	~3 µM

Second part, the molecule after the results:

IC50	Molecule
~60 µM	C=C1CC[C@H](O)C/C1=C/C=C1\CCC[C@]2(C)[C@@H]([C@H](C)/C=C/[C@H](C)C(C)C)CC[C@@H]12 [Compound 97, Vitamin D2]
~5 µM	C=C[C@@H](C1=CC(=O)C(OC)=C(OC)C1=O)c1ccccc1 [Compound 94, 3'4'-Dimethoxydalbergione]
~40 µM	CO[C@H]1[C@@H](OC)C[C@H](C)[C@@H](OC)C2=CC(=O)C=C(NC(=O)/C(C)=C/C=C\[C@H](OC)[C@@H](OC(N)=O)/C(C)=C/[C@@H]1C)C2=O [Compound 91, Herbimycin]
~20 µM	Cc1cc(O)c2c3c(ccc2c1)C(=O)c1c(O)cccc1C3=O [Compound 87, Tetrangulol G2]
30 to 50 µM	CC1=C(/C=C/C(C)=C\C=C\C(C)=C\C(=O)O)C(C)(C)CCC1 [Compound 113, 9-Cis-retinoic acid]
~2 µM	C=CC(C1=CC(=O)C=CC1=O)c1ccccc1 (stereo not drawn) [Compound 92, Dalbergione]
~5 µM	C/C=C/C(=O)c1c(OC)cc2cc(OC)cc(OC)c2c1OC [Compound 103, (E)-1-(1,3,6,8-tetramethoxy-naphthalen-2-yl)but-2-en-1-one]
~10 µM	CNC1CC(Oc2cc(C)cc(CO)c2C2=C(SCC(NC(C)=O)C(=O)O)C(=O)c3c(O)cccc3C2=O)OC(C)C1O (stereo not drawn) [Compound 82]
~20 µM	CN(C)[C@@H]1C(O)=C(C(=O)NCN2CCCC2)C(=O)[C@@]2(O)C(O)=C3C(=O)c4c(O)cccc4[C@@](C)(O)[C@H]3C[C@@H]12 [Compound 100, Rolitetracycline]
